Where two headings read alike, the source gives them in different places.
Assays:
[1] = type: physicochemical; conditions: Table 4, accelerated for 1 month; hydroxysafflor yellow A by acidizing purity 99.2%, sodium salt purity 99.2%
cerebral basilar artery = conditions: phenylephrine tension; 10 mg/ml added every 5 min, 4-5 times
[2] = system: cerebral vascular permeability; conditions: medium and high dosage groups, intravenous once a day for 7 days
blood viscosity = conditions: rabbit
[3] = system: platelet aggregation induced by the ADP and the PAF; conditions: rabbit, intravenous once a day for 5 days, blood within 2 h after last injection
cerebral blood flow = conditions: medium and high dosage groups after intravenous injection
[4] = system: platelet aggregation of the rat; conditions: 15 minutes flow
[5] = system: acute myocardial infarction; assay: acute myocardial infarction of anesthetized dog by coronary artery ligation (ST segment elevation, infarction range); type: in vivo
coronary artery ring = conditions: phenylephrine tension; 10 mg/ml added every 5 min, 4-5 times
[6] = 10 mg/kg intravenous injection, dog, 4 h

Compound: O=C(/C=C/c1ccc(O)cc1)C1=C(O)C(O)(C2OC(CO)C(O)C(O)C2O)C(O)=C(C2OC(CO)C(O)C(O)C2O)C1=O (stereo not shown) [Hydroxysafflor yellow A, hydroxysafflor yellow A]
- Content (counting Hydroxyl A) [1]: 94.1%

Compound: hydroxysafflor yellow A sodium
- relaxation effect on a cerebral vascular ring (cerebral basilar artery): 72.8%
- Evans blue leached from the cerebral vascular [2]: significant effects on reducing the Evans blue leached from the cerebral vascular
- effect on blood viscosity of the high dosage group compared to positive control (blood viscosity; high dosage group): better than the positive control nimodipine injection group
- blood viscosity indexes low-cut, medium-cut and high-cut compared to the solvent control group (blood viscosity; intravenous once a day for 5 days, 2 hour after last injection): decreased with increase of the dosage
- preventing the platelet aggregation induced by the ADP and the PAF [3]: sufficient effect on presenting the platelet aggregation
- cerebral blood flow (cerebral blood flow): effect of increasing the blood flow
- maintaining time of the blood flow increase (cerebral blood flow): about 15 min
- weight of the platelet adhered ([4]; high dosage group): 9.02 ± 1.29 mg
- weight of the platelet adhered ([4]; low dosage group): 13.8 ± 1.95 mg
- weight of the platelet adhered ([4]; medium dosage group): 9.87 ± 1.50 mg
- Dangerous area [5, 6]: 13.1 ± 3.8 g
- Infarcted area [5, 6]: 2.2 ± 0.3 g
- Infarction rate % [5, 6]: 18.1 ± 5.8 %
- ST segment elevation compared to the saline group ([5]; 5 min-4 h after injection): significantly decreased
- ST segment elevation ([5]; 5 min, 10 mg/kg intravenous injection, dog): 0.84
- ST segment elevation ([5]; 15 min, 10 mg/kg intravenous injection, dog): 0.81
- ST segment elevation ([5]; 30 min, 10 mg/kg intravenous injection, dog): 0.78
- ST segment elevation ([5]; 1 h, 10 mg/kg intravenous injection, dog): 0.72
- ST segment elevation ([5]; 2 h, 10 mg/kg intravenous injection, dog): 0.61
- ST segment elevation ([5]; 3 h, 10 mg/kg intravenous injection, dog): 0.48
- ST segment elevation ([5]; 4 h, 10 mg/kg intravenous injection, dog): 0.33
- myocardial infarction range ([5]; anesthetized dog processed with thoracotomy): significantly decrease
- effect on preventing myocardial ischemic necrosis compared to the safflor yellow injection ([5]; dog): better effect
- relaxation effect on a cardiac vascular ring (coronary artery ring): 30.9%
